Values joined by “and” are separate entries in the source; they are usually repeats but may differ in a detail not shown here. Equal values may be shown once.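 These data come from cells grown in 96-well plates and exposed to compound for 48 hours at five concentrations. Here, GI50 denotes the concentration required for 50% inhibition of growth. TGI: concentration producing complete growth inhibition.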
Legend:
Test in all cases: NCI tumour cell line growth inhibition, 48 h
A498 renal = system: A498 renal
A549 NSCLC = system: A549 NSCLC
BT-549 breast = system: BT-549 breast
CCRF-CEM leukemia = system: CCRF-CEM leukemia
COLO 205 colon = system: COLO 205 colon
DU-145 prostate = system: DU-145 prostate
EKVX NSCLC = system: EKVX NSCLC
HOP-62 NSCLC = system: HOP-62 NSCLC
HS 578T breast = system: HS 578T breast
HT29 colon = system: HT29 colon
IGROV1 ovarian = system: IGROV1 ovarian
LOX IMVI melanoma = system: LOX IMVI melanoma
LXFL 529 NSCLC = system: LXFL 529 NSCLC
M14 melanoma = system: M14 melanoma
M19-MEL melanoma = system: M19-MEL melanoma
MCF7 breast = system: MCF7 breast
MDA-MB-231 breast = system: MDA-MB-231 breast
MDA-MB-435 = system: MDA-MB-435
NCI-H322M lung = system: NCI-H322M lung
NCI-H522 lung = system: NCI-H522 lung
NCI/ADR-RES ovarian = system: NCI/ADR-RES ovarian
OVCAR-3 ovarian = system: OVCAR-3 ovarian
OVCAR-4 ovarian = system: OVCAR-4 ovarian
OVCAR-5 ovarian = system: OVCAR-5 ovarian
OVCAR-8 ovarian = system: OVCAR-8 ovarian
PC-3 prostate = system: PC-3 prostate
RPMI-8226 leukemia = system: RPMI-8226 leukemia
RXF 393 renal = system: RXF 393 renal
SF-268 CNS = system: SF-268 CNS
SF-295 CNS = system: SF-295 CNS
SK-MEL-28 melanoma = system: SK-MEL-28 melanoma
SK-MEL-5 melanoma = system: SK-MEL-5 melanoma
SK-OV-3 ovarian = system: SK-OV-3 ovarian
SNB-19 CNS = system: SNB-19 CNS
SR leukemia = system: SR leukemia
SW-620 colon = system: SW-620 colon
TK-10 renal = system: TK-10 renal
U251 CNS = system: U251 CNS
UACC-257 melanoma = system: UACC-257 melanoma
UACC-62 melanoma = system: UACC-62 melanoma
UO-31 renal = system: UO-31 renal

CN(CCCl)CCCl
GI50 (A498 renal): 2.31 µM and 5.98 µM
TGI (A498 renal): 13.1 µM and 18.3 µM
GI50 (A549 NSCLC): 1.83 µM
TGI (A549 NSCLC): 36.6 µM
GI50 (BT-549 breast): 10.5 µM and 11.7 µM
TGI (BT-549 breast): 30.7 µM and 24.2 µM
GI50 (CCRF-CEM leukemia): 0.22 µM
TGI (CCRF-CEM leukemia): 14.9 µM
GI50 (COLO 205 colon): 3.87 µM
TGI (COLO 205 colon): 12.7 µM
GI50 (DU-145 prostate): 1.65 µM
TGI (DU-145 prostate): 12.9 µM
GI50 (EKVX NSCLC): 6 µM and 5.07 µM and 10.5 µM
TGI (EKVX NSCLC): 20.5 µM and 12.9 µM and 16.7 µM
GI50 (HOP-62 NSCLC): 4.95 µM
TGI (HOP-62 NSCLC): 29.8 µM
GI50 (HS 578T breast): 44.6 µM
TGI (HS 578T breast): > 100 µM
GI50 (HT29 colon): 1.9 µM and 4.26 µM and 8.46 µM
TGI (HT29 colon): 11.7 µM and 22.9 µM and 22.2 µM
GI50 (IGROV1 ovarian): 5.18 µM and 4.94 µM
TGI (IGROV1 ovarian): 23.2 µM and 20.3 µM
GI50 (LOX IMVI melanoma): 1.03 µM and 2.23 µM
TGI (LOX IMVI melanoma): 11.3 µM and 20.8 µM
GI50 (LXFL 529 NSCLC): 6.52 µM
TGI (LXFL 529 NSCLC): 17.2 µM
GI50 (M14 melanoma): 3.76 µM and 7.91 µM and 4.96 µM
TGI (M14 melanoma): 17.9 µM and 27.2 µM and 31.9 µM
GI50 (M19-MEL melanoma): 8.05 µM
TGI (M19-MEL melanoma): 35.8 µM
GI50 (MCF7 breast): 1.75 µM
TGI (MCF7 breast): 20.3 µM
GI50 (MDA-MB-231 breast): 15.9 µM and 22.5 µM and 8.38 µM
TGI (MDA-MB-231 breast): 58.8 µM and 49.2 µM and 34.7 µM
GI50 (MDA-MB-435): 12.4 µM and 7.68 µM
TGI (MDA-MB-435): 26.9 µM and 18.3 µM
GI50 (NCI-H322M lung): 6.82 µM and 18.3 µM
TGI (NCI-H322M lung): 32.2 µM and 37.1 µM
GI50 (NCI-H522 lung): 3.23 µM
TGI (NCI-H522 lung): 5.4 µM
GI50 (NCI/ADR-RES ovarian): 3.33 µM
TGI (NCI/ADR-RES ovarian): 18.5 µM
GI50 (OVCAR-3 ovarian): 11.2 µM
TGI (OVCAR-3 ovarian): 19.2 µM
GI50 (OVCAR-4 ovarian): 9.97 µM and 18.4 µM
TGI (OVCAR-4 ovarian): 43.6 µM and 25.9 µM
GI50 (OVCAR-5 ovarian): 12.9 µM and 24.1 µM
TGI (OVCAR-5 ovarian): 27.9 µM and 41.4 µM
GI50 (OVCAR-8 ovarian): 11.9 µM
TGI (OVCAR-8 ovarian): 97.1 µM
GI50 (PC-3 prostate): 3.48 µM and 12.9 µM
TGI (PC-3 prostate): 16.7 µM and 25.9 µM
GI50 (RPMI-8226 leukemia): 2.19 µM
TGI (RPMI-8226 leukemia): 25.2 µM
GI50 (RXF 393 renal): 5.46 µM
TGI (RXF 393 renal): 14.2 µM
GI50 (SF-268 CNS): 2.54 µM
TGI (SF-268 CNS): 32.3 µM
GI50 (SF-295 CNS): 2.53 µM and 3.23 µM
TGI (SF-295 CNS): 11.7 µM and 40.1 µM
GI50 (SK-MEL-28 melanoma): 9.22 µM and 11.7 µM and 20.3 µM
TGI (SK-MEL-28 melanoma): 29.8 µM and 29 µM and 63.6 µM
GI50 (SK-MEL-5 melanoma): 1.88 µM
TGI (SK-MEL-5 melanoma): 10.8 µM
GI50 (SK-OV-3 ovarian): 7.93 µM
TGI (SK-OV-3 ovarian): 30.7 µM
GI50 (SNB-19 CNS): 17.4 µM
TGI (SNB-19 CNS): 86.9 µM
GI50 (SR leukemia): 0.148 µM
TGI (SR leukemia): 10.6 µM
GI50 (SW-620 colon): 1.4 µM and 5.98 µM
TGI (SW-620 colon): 10.8 µM and 23.2 µM
GI50 (TK-10 renal): 11.3 µM and 3.72 µM
TGI (TK-10 renal): 32.2 µM and 10.9 µM
GI50 (U251 CNS): 4.53 µM and 2.85 µM and 9.09 µM
TGI (U251 CNS): 35.7 µM and 25.3 µM
GI50 (UACC-257 melanoma): 3.53 µM and 11.6 µM
TGI (UACC-257 melanoma): 18.3 µM and 23.8 µM
GI50 (UACC-62 melanoma): 2.5 µM and 8.45 µM and 2.36 µM
TGI (UACC-62 melanoma): 16.6 µM and 25.2 µM and 14.2 µM
GI50 (UO-31 renal): 8.5 µM
TGI (UO-31 renal): 30.9 µM

— PubChem BioAssay (NCI)
